# Test results reported in patent US8987268B2, “Pyrrolopyridazine JAK3 inhibitors and their use for the treatment of inflammatory and autoimmune diseases” (Bristol-Myers Squibb Company, priority 2011, dated 2015).
# The chains behind the UniProt entries cited, without tags or fusion partners. Where a name states a change or a piece, a line headed by the entry shows the natural chain unless it says otherwise.
# UniProt P52333: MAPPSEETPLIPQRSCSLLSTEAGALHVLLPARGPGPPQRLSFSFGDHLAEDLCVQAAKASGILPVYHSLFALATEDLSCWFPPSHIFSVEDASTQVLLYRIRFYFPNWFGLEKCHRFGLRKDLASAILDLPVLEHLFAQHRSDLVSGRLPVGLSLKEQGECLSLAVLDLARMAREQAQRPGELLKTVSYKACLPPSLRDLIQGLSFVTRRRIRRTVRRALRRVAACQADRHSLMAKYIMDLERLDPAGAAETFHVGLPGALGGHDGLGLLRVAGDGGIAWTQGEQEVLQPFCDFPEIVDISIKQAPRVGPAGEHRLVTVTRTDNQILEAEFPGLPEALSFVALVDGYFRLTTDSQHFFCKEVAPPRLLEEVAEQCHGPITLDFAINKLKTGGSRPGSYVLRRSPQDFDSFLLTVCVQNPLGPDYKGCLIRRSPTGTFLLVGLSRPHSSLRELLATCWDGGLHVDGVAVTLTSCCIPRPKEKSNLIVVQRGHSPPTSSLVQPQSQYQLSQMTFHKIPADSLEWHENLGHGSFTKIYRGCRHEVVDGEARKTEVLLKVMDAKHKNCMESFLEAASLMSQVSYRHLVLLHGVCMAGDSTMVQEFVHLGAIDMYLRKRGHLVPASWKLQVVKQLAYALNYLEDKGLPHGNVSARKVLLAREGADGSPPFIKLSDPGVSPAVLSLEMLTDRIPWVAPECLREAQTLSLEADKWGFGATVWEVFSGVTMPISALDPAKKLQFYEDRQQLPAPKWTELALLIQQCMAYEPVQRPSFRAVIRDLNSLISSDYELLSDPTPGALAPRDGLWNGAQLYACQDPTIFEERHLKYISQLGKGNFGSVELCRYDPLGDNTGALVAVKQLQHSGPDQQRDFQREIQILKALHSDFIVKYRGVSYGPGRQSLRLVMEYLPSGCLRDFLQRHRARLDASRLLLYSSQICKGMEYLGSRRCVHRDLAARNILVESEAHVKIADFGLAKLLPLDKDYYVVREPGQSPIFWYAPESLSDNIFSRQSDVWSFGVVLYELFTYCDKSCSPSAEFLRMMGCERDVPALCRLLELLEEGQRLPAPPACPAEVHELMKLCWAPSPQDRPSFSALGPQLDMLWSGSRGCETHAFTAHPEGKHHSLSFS
# UniProt P23458: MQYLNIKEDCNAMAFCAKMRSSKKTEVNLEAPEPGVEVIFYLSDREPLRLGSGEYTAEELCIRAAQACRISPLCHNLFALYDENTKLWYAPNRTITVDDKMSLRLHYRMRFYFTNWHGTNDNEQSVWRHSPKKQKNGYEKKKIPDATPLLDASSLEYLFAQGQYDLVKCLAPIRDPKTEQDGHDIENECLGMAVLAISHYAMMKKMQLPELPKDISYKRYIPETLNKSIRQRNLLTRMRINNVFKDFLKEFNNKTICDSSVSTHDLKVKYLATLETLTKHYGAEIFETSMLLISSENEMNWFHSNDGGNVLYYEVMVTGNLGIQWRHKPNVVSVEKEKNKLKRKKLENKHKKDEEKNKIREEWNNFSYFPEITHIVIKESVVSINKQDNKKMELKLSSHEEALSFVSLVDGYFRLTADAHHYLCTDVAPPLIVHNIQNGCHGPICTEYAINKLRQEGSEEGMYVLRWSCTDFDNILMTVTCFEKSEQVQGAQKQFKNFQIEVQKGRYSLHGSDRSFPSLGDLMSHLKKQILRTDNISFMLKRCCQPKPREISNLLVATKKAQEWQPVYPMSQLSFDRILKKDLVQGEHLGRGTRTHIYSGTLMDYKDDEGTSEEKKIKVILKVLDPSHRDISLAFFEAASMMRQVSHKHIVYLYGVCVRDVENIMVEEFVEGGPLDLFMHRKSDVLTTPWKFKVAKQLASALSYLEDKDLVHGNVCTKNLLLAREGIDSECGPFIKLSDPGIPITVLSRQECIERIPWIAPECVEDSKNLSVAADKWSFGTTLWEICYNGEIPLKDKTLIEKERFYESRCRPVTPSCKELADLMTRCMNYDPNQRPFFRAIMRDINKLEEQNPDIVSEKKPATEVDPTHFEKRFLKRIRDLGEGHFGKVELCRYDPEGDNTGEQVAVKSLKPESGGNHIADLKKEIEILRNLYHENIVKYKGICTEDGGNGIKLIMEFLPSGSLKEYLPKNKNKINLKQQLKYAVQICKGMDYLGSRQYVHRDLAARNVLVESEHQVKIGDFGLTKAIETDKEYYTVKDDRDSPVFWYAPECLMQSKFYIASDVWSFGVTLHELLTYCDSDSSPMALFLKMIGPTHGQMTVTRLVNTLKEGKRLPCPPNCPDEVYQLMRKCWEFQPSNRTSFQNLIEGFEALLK
# pIC50: −log10 of the molar value.
# Tests used:
# [1] = target: GST-JAK3 enzyme (Homo sapiens (Human), UniProt P52333); assay: JAK3 Kinase Assay Protocol (Caliper); assay type: biochemical; settings: JAK3 kinase inhibition; read-out: LLE_JAK3_FB (IC50)
# Description: JAK3 Kinase Assay Protocol (Caliper)
# (§1) The assay reactions were performed in U-bottom 384-well plates. […] The reaction was initiated by the combination of GST-JAK3 enzyme with substrates and test compounds. The reactions were incubated at room temperature for 3 hours and terminated by adding 60 μl of 35 mM EDTA to each sample. Each reaction mixture was analyzed on the Caliper LabChip 3000 (Caliper, Hopkinton, Mass.) by electrophoretic separation of the fluorescent substrate and phosphorylated product. […] Compounds were dissolved at 10 mM in dimethylsulfoxide (DMSO) and evaluated at eleven concentrations. IC50 values were derived by non-linear regression analysis.
# [2] = target: GST-JAK1 enzyme (Homo sapiens (Human), UniProt P23458); assay: JAK1 Kinase Assay Protocol; assay type: biochemical; settings: JAK1 kinase inhibition; read-out: LLE_JAK1 (IC50)
# Description: JAK1 Kinase Assay Protocol
# as §1, with “GST-JAK1” for “GST-JAK3”
pIC50 [1],pIC50 [2],SMILES
8.01,,"CS(=O)(=O)N1C[C@H](CF)[C@H](Nc2c(C(N)=O)cnn3cc(-c4ccc(C(F)(F)F)nc4)cc23)C1 (racemic) [Example 275, (+/−)-Cis-4-((-4-(fluoromethyl)-1-(methylsulfonyl)pyrrolidin-3-yl)amino)-6-(6-(trifluoromethyl)pyridin-3-yl)pyrrolo[1,2-b]pyridazine-3-carboxamide]"
8.85,,COc1ccc(-c2cc3c(N[C@@H]4CN(C(=O)CC#N)C[C@@H]4C)c(C(N)=O)cnn3c2)cn1 [Example 53]
6.87,6.96,COc1ccc(-c2cc3c(N[C@H]4CN(C(=O)CC#N)C[C@H]4C)c(C(N)=O)cnn3c2)cn1 [Example 54]
,8.10,COc1ccc(-c2cc3c(N[C@@H]4CCN(C(=O)[C@@H](C)O)CC4(C)C)c(C(N)=O)cnn3c2)cn1 [Example 56]
